Experiments:
[1] = tested on: uveal melanoma cell lines (OCM-1, OCM-3, 92-1 and mel 202); experiment: Survival / cell death of the four uveal melanoma cell lines; format: cell-based, human; conditions: all 4 uveal melanoma cell lines; read-out: IC50 for survival, range over the 4 uveal melanoma cell lines

CS(=O)(=O)O.Cc1ccc(NC(=O)c2ccc(CN3CCN(C)CC3)cc2)cc1Nc1nccc(-c2cccnc2)n1 [Salt I]
IC50 [1]: 70 to 1250 nM
percentages of living cells as compared to 100% survival of untreated cells (UM 92-1 cells; UM 92-1, 24 h, 0.6 μM Salt I, runs 1 and 2): 102%
IC50 (UM 92-1 cells; read-out: IC50 of Salt I on survival, uveal melanoma cell line UM 92-1, Example 1: 48 hours exposure): 1250 nM
